Apparent affinities of Ab-14 variants for a coronavirus HR2 peptide

Target peptide (SARS-CoV-2 spike, HR2 region): PDVDLGDISGINAS

The variants keep the light chain, the linker and the frameworks of Ab-14 (scFv order VH, a 15-residue (Gly4Ser)3 linker, VL).
VH: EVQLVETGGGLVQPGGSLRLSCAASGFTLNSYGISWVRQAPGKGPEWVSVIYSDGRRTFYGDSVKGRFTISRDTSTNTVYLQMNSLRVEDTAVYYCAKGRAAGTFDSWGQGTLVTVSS
VL: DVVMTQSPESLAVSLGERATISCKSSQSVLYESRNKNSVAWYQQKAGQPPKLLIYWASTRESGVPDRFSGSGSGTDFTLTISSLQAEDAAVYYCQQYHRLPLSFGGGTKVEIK

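Designed CDR sequences, proposed from the first random library and measured here. Group labels follow the data file (Ctrl: baseline library sampled from a position-specific scoring matrix, with some repeated check sequences; Rand: our label for a block that the file lists under HC and that is probably the random mutants of the ten best first-round binders; En: ensemble of fine-tuned language models; GP: Gaussian process model; GPLM: also part of the Gaussian process libraries; HC: hill climbing; Gen: genetic algorithm; Gibbs: Gibbs sampling; a sequence that several methods proposed may carry one label only). The assay is AlphaSeq: two haploid yeast populations carry antibody and antigen on their surface. Binding brings cells together so that they mate, and sequencing counts the barcode pairs among the diploids. Scores were corrected for input abundance and mapped to Kd with protein pairs of known affinity run in the same pool. The assay was run in six technical replicates.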

The parent's heavy chain CDRs are GFTLNSYGIS, VIYSDGRRTFYGDSVK, GRAAGTFDS; each variant's own CDRs replace them letter for letter.
Variants here have at most six changes.
Values are apparent Kd, the geometric mean of the replicates that gave a signal; lower means stronger binding.
A pair that was not seen in any replicate is written "no signal"; this usually means weak binding, but a binder can also be missed.
The list is sorted by this average, lowest first, undetected variants last.
The range of this assay differs from that of the first round, and the authors advise against merging the two.
The parent sequence was in this pool as ten entries: three were never detected, three once, and four in most replicates, with averages from 2.2 nM to 240 nM.
The authors averaged sequences with at least three values out of six and counted those with two or fewer as poor binders.
Empty control strains, which show no peptide, gave a signal in 1% of pairings with all heavy chain designs; the median was 120 nM and 95% of these signals were weaker than 7.0 nM. No background was subtracted.

The variant GFDLNEYGIS / VIYADGRRTFYTDSVK / GELAGTFDS [En_HC] gave 480 pM (6 of 6 replicates). For GFALNEYGIS / VIYSDGRRTFYSDSVK / GRTAGTFDS [GPLM_Gen], the assay gave 540 pM (6 of 6 replicates). For GFSLNEYGIS / VIYSDGRRTMYMDSVK / GRTAGTFDS [GP_Gibbs], the assay gave 700 pM (6 of 6 replicates). The variant GFPLNEYGIS / VIYSDGRRTFYGDSVK / GREAGTFDT [GP_Gen] gave 870 pM (6 of 6 replicates). The variant GFDLNSYGIS / VIYSDGRRTFYDDSVK / GQTAGTFDS [GP_Gen] showed 1.2 nM (6 of 6 replicates). The variant RNTLNSYGIS / VIYADGLRTAYGDSVK / GRAAGTFDS [Ctrl] showed 1.3 nM (6 of 6 replicates). The variant GFSLNEYGIS / VIYSDGRRTFYTDSVK / GRAAGTFDS [GPLM_HC] showed 1.3 nM (6 of 6 replicates). The variant GFDLNEYGIS / VIYSDGRRTFYGDSVK / GRAAGTFDM [GP_HC] showed 1.7 nM (6 of 6 replicates). For GFDLNSYGIS / VIYSDGRRTFYGDQVK / GWTAGTFDS [GP_Gen], the assay gave 2.1 nM (6 of 6 replicates).

With GFSLNSYGIS / VIYSDGKRTFYADNVK / GRAAGTFDS [GPLM_Gen] the result was 2.3 nM (6 of 6 replicates). The variant GFELNSYGIS / VIYSDGRRTFYVDDVK / GRQAGTFDS [GP_Gibbs] showed 2.4 nM (6 of 6 replicates). The variant TFTLNSYGIS / VIYSDGRRTFYGDSVK / GRYAGTFDQ [Ctrl] showed 2.9 nM (1 of 6 replicates). The variant GFTLNSYGIS / VIYSDGRRTFYSDSVK / GSVGGTFDS [GPLM_HC] gave 5.0 nM (6 of 6 replicates). For GFELNSYGIS / VIYSDGRRTFYGDSVK / GKTAGTFDE [GP_Gen], the assay gave 6.5 nM (6 of 6 replicates). With GFSLENYGIS / VIYSDGRRTFYGDQVK / GRTAGTFDS [GP_Gibbs] the result was 6.9 nM (6 of 6 replicates). The variant GFGLNSYGIS / VIYSDGRRTFYGDSVK / GREAGTFDS [Ctrl] showed 9.1 nM (6 of 6 replicates). The variant GFTLNDYGIS / VIYSDGRRTFYGDSVK / GRAAGTFEI [GP_HC] gave 9.8 nM (4 of 6 replicates). With GFSLNSYGIS / VIYSDGRRTFYGDQVK / GNAAGTFDS [GP_Gen] the result was 10 nM (4 of 6 replicates).

For GFNLNSYGIS / VIYSDGRRTFYLDQVK / GNTAGTFDS [GP_Gibbs], the assay gave 13 nM (6 of 6 replicates). With GFTLESYGIS / VIYSDGRRTFYGDSVK / GQVAGTFDS [GPLM_Gibbs] the result was 19 nM (6 of 6 replicates). For GFDINSYGIS / VIYSDGYRTFYGDSVK / GQAAGTFDS [Ctrl], the assay gave 22 nM (6 of 6 replicates). The variant GFDLNQYGIS / VIYSDGRRTFYGDSVK / GREAGTFDS [Ctrl] showed 25 nM (2 of 6 replicates). For YFTLNEYGIS / VIYSDGRRTFYDDSVK / GRNAGTFDS [GP_HC], the assay gave 27 nM (5 of 6 replicates). The variant GFSLNSYGIS / VIYSDGRRTFYSDSVK / GKQAGTFDS [GPLM_Gibbs] showed 35 nM (5 of 6 replicates). For GFELNSYGIS / VIYSDGRRTFYGDSVR / GDAAGTWDS [Ctrl], the assay gave 38 nM (4 of 6 replicates). The variant GETLAQYGIS / VIYSDGRRTFYIDSVK / GRYAGTFDS [Ctrl] gave 43 nM (3 of 6 replicates). With GFTLNSYGIS / VIYSDGRRTFYIDDVK / GEAAGTFKS [GP_HC] the result was 48 nM (4 of 6 replicates).

The variant GFALNLYGIS / VIYSDGRRCFYKDSVK / GRAAGTFDS [Ctrl] gave 220 nM (1 of 6 replicates). The variant GFTLNEHGIS / VIYSDGSRTFYGDSVK / GRAAGYFDS [Ctrl] showed 850 nM (1 of 6 replicates). The variant GFTLNSYGIS / VIYSDGRRTFYGDSVK / VREAGTFSS [Ctrl] showed 1.2 µM (1 of 6 replicates). With GFTLKSYGIS / VIYSDGRRTFYGDSVK / GRAAATFVS [Ctrl] the result was no signal (0 of 6 replicates). With GFTDDSYGIS / VIPSDGRRTFYGDSVK / GRAAGIALS [Rand] the result was no signal (0 of 6 replicates). The variant GFTLNMYGIS / VIYPDGRRTFYSDSVK / GRAAGFFDS [Rand] gave no signal (0 of 6 replicates). The variant GFTLNSYGIS / VIYSDGRRTFYGDSVK / GREAGTFDC [Ctrl] gave no signal (0 of 6 replicates). For GFDLNSYGIS / VKYSDGRRTFYGDSGK / GRAAGWFQS [Rand], the assay gave no signal (0 of 6 replicates). With GFPLNSYGIS / VIYSDGIRTFYSDDVK / GRAAGTFDS [Ctrl] the result was no signal (0 of 6 replicates).

The variant NFTLNSYGIS / VIYSDGRRTFYDDSVK / GQLAGTFDS [GPLM_HC] gave no signal (0 of 6 replicates). The variant GFTLNEYGIS / VIESDGRRTMYTDSVK / GRFAGTFDS [Rand] gave no signal (0 of 6 replicates). With GFTLNSYGIS / VIYSDGRRTFYGDQVK / GRAAGTPDS [Ctrl] the result was no signal (0 of 6 replicates). The variant GFDLNSYGIS / VIYSDGRRTFYGDSVK / GRAAGMFDS [GPLM_HC] showed no signal (0 of 6 replicates).

Picked from the list: the 3 lowest averages where every replicate gave a value.

| CDR-H1 | CDR-H2 | CDR-H3 | group | apparent Kd | seen in |
|---|---|---|---|---|---|
| GFDLNEYGIS | VIYADGRRTFYTDSVK | GELAGTFDS | En_HC | 480 pM | 6/6 |
| GFALNEYGIS | VIYSDGRRTFYSDSVK | GRTAGTFDS | GPLM_Gen | 540 pM | 6/6 |
| GFSLNEYGIS | VIYSDGRRTMYMDSVK | GRTAGTFDS | GP_Gibbs | 700 pM | 6/6 |

Values reported by Li et al. 2023, doi:10.1038/s41467-023-39022-2 (FLAb copy).